Data as given in patent US12295964B2, “Treating pain associated with chemotherapy-induced peripheral neuropathy” (MEDICON PHARMACEUTICALS, INC., priority 2021, dated 2025).

System: paclitaxel-induced CIPN in C57/BL/6J mice
Experiment: Comparison with sulindac, lidocaine and pregabalin in paclitaxel CIPN, mechanical allodynia (PWT, von Frey)
Details: pregabalin 10 mg/kg orally once, one hour before measurement

## CC(C)C[C@H](CN)CC(=O)O [pregabalin]
  PWT, g Mean ± SEM: 1.28 ± 0.10 g
